Data as given in patent US20240009195A1, “NOVEL USES” (INTRA-CELLULAR THERAPIES, INC., priority 2020, published 2024).

By UniProt entry, the sequences of proteins in these tests, tags left out. Where a name states a change or a piece, a line headed by the entry shows the natural chain unless it says otherwise.
UniProt Q08499: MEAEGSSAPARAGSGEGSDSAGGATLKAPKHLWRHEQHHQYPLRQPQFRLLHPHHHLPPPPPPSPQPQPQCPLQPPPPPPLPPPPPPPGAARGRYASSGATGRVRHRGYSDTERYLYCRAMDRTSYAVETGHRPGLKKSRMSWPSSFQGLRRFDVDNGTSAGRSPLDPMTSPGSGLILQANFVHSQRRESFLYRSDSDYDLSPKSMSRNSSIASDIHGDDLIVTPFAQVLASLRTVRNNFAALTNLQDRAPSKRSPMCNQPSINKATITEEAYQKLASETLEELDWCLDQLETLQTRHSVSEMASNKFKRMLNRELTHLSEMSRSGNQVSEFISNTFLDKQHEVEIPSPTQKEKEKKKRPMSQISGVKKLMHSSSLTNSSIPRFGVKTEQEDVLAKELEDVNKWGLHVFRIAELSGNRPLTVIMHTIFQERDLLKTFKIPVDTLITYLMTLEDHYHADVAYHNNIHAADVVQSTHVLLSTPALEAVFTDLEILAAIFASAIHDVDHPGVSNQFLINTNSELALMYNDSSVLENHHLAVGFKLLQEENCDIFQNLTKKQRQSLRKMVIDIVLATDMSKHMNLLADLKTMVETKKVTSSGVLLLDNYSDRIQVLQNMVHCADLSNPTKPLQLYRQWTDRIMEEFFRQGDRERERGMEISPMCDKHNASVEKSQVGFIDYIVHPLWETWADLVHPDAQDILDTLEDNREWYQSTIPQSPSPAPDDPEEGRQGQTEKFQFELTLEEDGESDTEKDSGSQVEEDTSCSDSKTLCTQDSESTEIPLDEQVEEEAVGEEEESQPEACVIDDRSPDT

Experiments:
hPDE1B = hPDE1B (Homo sapiens, UniProt Q01064); assay: biochemical
hPDE4D = hPDE4D (Homo sapiens, UniProt Q08499); assay: biochemical

For `CN1C(=O)c2c(nn(Cc3ccc(-c4cccc(F)n4)cc3)c2Nc2ccccc2)N2C1=N[C@@H]1CCC[C@@H]12` [Compound 1], the IC50 (hPDE1B) was 0.000379 µM and the IC50 (hPDE4D) was 0.036 µM.
